From US11058780B2, “Palpable marker composition” (TECHNICAL UNIVERSITY OF DENMARK, priority 2016, dated 2021) come the findings set out here.

The series can be described thus: Solubility in ethanol and doping of iodo-SAIB into SAIB. The series is classed as physicochemical.

Regarding sucrose acetate isobutyrate [SAIB], the solubility in ethanol entry is “highly soluble”.
